# Ab-14 light chain CDR variants: yeast mating affinities

Reference: Li et al. 2023, doi:10.1038/s41467-023-39022-2. File: FLAb, binding data.

Antigen: PDVDLGDISGINAS, a 14-residue peptide of the SARS-CoV-2 spike HR2 region.

The variants keep the heavy chain, the linker and the frameworks of Ab-14 (scFv order VH, three GGGGS repeats, VL).
VH: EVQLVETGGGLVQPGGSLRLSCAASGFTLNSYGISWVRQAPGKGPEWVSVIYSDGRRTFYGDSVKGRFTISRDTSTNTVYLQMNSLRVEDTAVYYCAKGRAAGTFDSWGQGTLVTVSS
VL: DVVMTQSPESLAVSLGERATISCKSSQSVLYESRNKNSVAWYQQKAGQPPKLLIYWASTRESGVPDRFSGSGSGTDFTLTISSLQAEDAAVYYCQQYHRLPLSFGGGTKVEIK

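The variants were designed computationally from a first round of random CDR variants and then made and measured. Several design methods are mixed in this list. In AlphaSeq, yeast of one mating type display the scFv and yeast of the other type display the target. Mating (16 h, 30 °C) was followed by selection of diploids and sequencing of their barcodes. A regression on co-assayed BCL2-family reference pairs converts the normalised counts of each replicate to an apparent Kd. Each pool was mated in six replicate cultures.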

Each variant is given by its three light chain CDRs, as the data file delimits them; those of the parent are KSSQSVLYESRNKNSVA, WASTRES, QQYHRLPLS. Variants here have more than six changes. Values are apparent Kd, the geometric mean of the replicates that gave a signal; lower means stronger binding. "nd" means that the variant was in the library but no mating with the target was seen in any replicate; the authors take this as a sign of poor binding, and no number exists. Of ten entries with the parent sequence, four were seen in most replicates (averages 2.2 nM to 240 nM), three in one and three in none, so single entries are noisy. The range of this assay differs from that of the first round, and the authors advise against merging the two. Three control strains display no target. For all light chain designs, 4% of the pairings with them gave a signal, with a median of 430 nM and one signal in twenty below 38 nM, so weak values seen in few replicates may be background. In the paper, a design with two or fewer of six values counts as a poor binder.

For KLSMITGHMHMSKNNVA | EMVTRAN | QQYDRLPLS, the assay gave 1.6 nM (6 of 6 replicates).
For MLSGVLHMLGAKKNSIA | DLVNRAN | QQYHRLPLM, the assay gave 69 nM (4 of 6 replicates).
For HMLYQFETISQRVNNVA | EGATVLD | QQYFRLPIT, the assay gave 3.8 nM (6 of 6 replicates).
For NVGQMMDGESRNKNSVA | HQSTRED | QHYHRLPLS, the assay gave 5.1 nM (6 of 6 replicates).
For KLSIMHQVESINKSNVA | EMVTRES | QQYHRLPLS, the assay gave 23 nM (6 of 6 replicates).
For TISQMLLMQTSHKNSVA | GEETRYQ | QQYHRLPLS, the assay gave 7.5 nM (6 of 6 replicates).
For KQQGGQDYESRMDNSVA | DASTRES | QQYHRLPLS, the assay gave 2.8 nM (6 of 6 replicates).
For KLREVQHLETKQRNNVA | DNDTREY | QDYYRLPLS, the assay gave 61 nM (2 of 6 replicates).
For KLQMSHGYESRMKNSVA | HASQREE | QQYHRLPLS, the assay gave 3.0 nM (6 of 6 replicates).
For TLTQSVGMESHTKNSVA | DLSTRGS | QQYHRLPLS, the assay gave 3.7 nM (6 of 6 replicates).
For SIEWEEWNGQSVKHNIA | ADTKVLE | QQYFRLPFT, the assay gave 3.1 nM (6 of 6 replicates).
For QISLNGWDGTKKEYAVA | EGTKKDA | QQYSRLPLS, the assay gave 4.4 nM (6 of 6 replicates).
For KLMQEMLYESRMINSVA | NASQREE | QQYHRLPLS, the assay gave 9.4 nM (6 of 6 replicates).
For KLPAATMQESVSKNNVA | ELSTRGS | QQYHRLPLS, the assay gave 20 nM (6 of 6 replicates).
For KISESMYFAQFNKQSIA | EVSTRSK | QSYNRLPLS, the assay gave 6.8 nM (6 of 6 replicates).
For MFDQQTMTENDKNNSVA | EENHLYN | QQYAQLPLI, the assay gave 210 nM (6 of 6 replicates).
For KLSQSVLEESDMKNNVA | WAKTREM | QQYHRLPLS, the assay gave 76 nM (6 of 6 replicates).
For KVSDPMVEWIANQSAVA | DHADVQH | QQYARLPLS, the assay gave 130 nM (6 of 6 replicates).
For KVSSFMRGLMMRTDSIA | DNETRES | QQYDRLPLS, the assay gave 30 nM (6 of 6 replicates).
For MVNTNLFHQAQRDNSIA | EADMVAA | QDYDRLPLI, the assay gave 260 nM (6 of 6 replicates).
For MISDLTMEGSRNKNSVA | DLSTRGH | QQYHRLPLS, the assay gave 750 pM (6 of 6 replicates).
For MLSQMWAIGQKVKNSVA | QASMRFN | QQYDRLPLE, the assay gave 28 nM (6 of 6 replicates).
For MLSQMTGLGMKASNSVA | QASMRFD | QQYHRLPLI, the assay gave 5.0 nM (6 of 6 replicates).
For KISQMVRVGSTHGNSIA | EEQTRAK | QQYHRLPLS, the assay gave 4.4 nM (6 of 6 replicates).
For KISQTNEMELKNRNSVA | ELVTRMS | QQYNRLPLS, the assay gave 7.0 nM (6 of 6 replicates).
For MFSQMTGLGMKASNSVA | QASTRFE | QQYHRLPLV, the assay gave 4.1 nM (6 of 6 replicates).
For KLSFSNGYEDRNKNSVA | QASTRLM | QQYHRLPLS, the assay gave 1.5 nM (6 of 6 replicates).
For HVESAWVESNAKKKNVA | NGQGRVE | QQYGRLPLQ, the assay gave 2.5 nM (6 of 6 replicates).
For KCQGSQLYESRNKNAVA | NASTRED | QQYHRLPLS, the assay gave 740 pM (6 of 6 replicates).
For KLTEMFQHTSKNKNNIA | ERSTREQ | QQYHHLPLS, the assay gave 2.4 nM (6 of 6 replicates).
For KSQIGQWYEDRNKNSVA | SASTREE | QQYHRLPLS, the assay gave 610 pM (6 of 6 replicates).
For ILSQMLWTAGNKHNSVA | QANNRES | QQYHRLPLS, the assay gave 59 nM (3 of 6 replicates).
For RLYNQFTEQIQHANSIA | DRDEVDS | QQYAHLPLS, the assay gave 49 nM (6 of 6 replicates).
For KVAERYEMGENFQSSIA | SGAHKVH | QQYYRLPLG, the assay gave 9.3 nM (6 of 6 replicates).
For MLRFDDTYGQKNWHAIA | ETSELGA | QQYAHLPLG, the assay gave 46 nM (5 of 6 replicates).
For MISQLYNMGQFAINSVA | QATLRNE | QQYDRLPLM, the assay gave 100 nM (5 of 6 replicates).
For KLRWDDMPHFETRSNVA | DATMRVH | QQYNRLPLD, the assay gave 4.3 nM (6 of 6 replicates).
For TISGLIMMPSRNKNSVA | NTSTRYS | QQYHRLPLS, the assay gave 7.2 nM (6 of 6 replicates).
For NITGMVNSKGTTTKNIA | EAEFRAG | QQYSRLPLS, the assay gave 760 pM (6 of 6 replicates).
For MISQLMNLGQFAINSVA | QASLRNA | QQYDRLPLT, the assay gave 76 nM (5 of 6 replicates).
For QIFFNDFEYGIESQNIA | QGSMREV | QQYARLPLV, the assay gave 1.7 nM (6 of 6 replicates).
For KVSEFMRGLMQRKDSIA | DNNTRGA | QQYDRLPLS, the assay gave 27 nM (6 of 6 replicates).
For KVDISPHVQGMHKHGVA | DHDMRVS | QQYDRLPLA, the assay gave 4.3 nM (6 of 6 replicates).
For MVTQMAMQGMTNKRSVA | NAETREN | QQYHRLPLI, the assay gave 6.2 nM (6 of 6 replicates).
For KLSGSELGESRNKNSVA | SADTRLM | QQYHRLPLS, the assay gave 2.8 nM (6 of 6 replicates).
For KLVGVSDNDRNPSHNIA | DVSMLDN | QQYHRLPLD, the assay gave 22 nM (6 of 6 replicates).
For SISGFMKSLSAHLNNVA | DMTNRED | QQYDRLPLS, the assay gave 2.9 nM (6 of 6 replicates).
For TISMHTSLFSQTINNVA | EVSTREN | QQYDRLPLA, the assay gave 6.3 nM (6 of 6 replicates).
For MISQLYNMGTFAINSVA | QASLRND | QQYDRLPLA, the assay gave 11 nM (6 of 6 replicates).
For HITMGMYVSGRYKSNIA | QAETREK | QQYDRLPLI, the assay gave 7.7 nM (6 of 6 replicates).
For TISQLMNMGSFAINSVA | QASIRNS | QQYDRLPLI, the assay gave nd (0 of 6 replicates).